Experimental data: US20050250794A1, “Methods of treating a disorder” (priority 2003, published 2005)

Biological target: T1, human SirT1 (Homo sapiens, UniProt Q96EB6)
T1 construct: purchased Biomol SE-239
T1 sequence (Q96EB6 1-747): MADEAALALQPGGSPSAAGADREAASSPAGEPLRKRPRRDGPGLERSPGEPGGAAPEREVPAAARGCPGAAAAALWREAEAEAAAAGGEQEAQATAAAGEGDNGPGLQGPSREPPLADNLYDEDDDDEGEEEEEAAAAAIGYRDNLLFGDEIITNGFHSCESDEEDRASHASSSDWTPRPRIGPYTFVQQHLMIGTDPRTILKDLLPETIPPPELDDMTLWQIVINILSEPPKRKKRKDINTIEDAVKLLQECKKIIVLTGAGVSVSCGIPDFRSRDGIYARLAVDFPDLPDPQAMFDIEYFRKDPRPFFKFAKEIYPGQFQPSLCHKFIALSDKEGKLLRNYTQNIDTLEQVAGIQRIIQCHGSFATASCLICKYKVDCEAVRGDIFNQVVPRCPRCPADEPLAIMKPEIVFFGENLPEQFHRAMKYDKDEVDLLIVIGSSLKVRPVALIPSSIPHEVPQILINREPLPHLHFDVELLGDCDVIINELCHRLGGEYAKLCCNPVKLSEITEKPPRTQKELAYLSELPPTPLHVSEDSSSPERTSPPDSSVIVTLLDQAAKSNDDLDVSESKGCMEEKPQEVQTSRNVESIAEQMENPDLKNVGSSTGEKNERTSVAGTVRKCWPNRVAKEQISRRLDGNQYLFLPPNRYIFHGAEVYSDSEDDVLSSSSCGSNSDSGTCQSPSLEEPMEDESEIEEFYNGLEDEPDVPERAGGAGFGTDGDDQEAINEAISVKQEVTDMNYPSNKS
Test: SirT1 Fluor de Lys enzymatic deacetylase assay
Assay type: biochemical
Description: An exemplary assay method includes a 1536 well format of the SirT1 enzymatic assay that is based on the commercial “Fluor-de-Lys” assay principle by Biomol, which is fluorogenic (www.biomol.com/store/Product_Data_PDFs/ak500.pdf). In this assay, deacetylation of the e-amino function of a lysyl residue is coupled to a fluorogenic “development step that is dependent on the unblocked e-amino functionality and generates fluorescent aminomethylcoumarin. Fluorescence can be read on a commercial macroscopic reader.
Step Description • 1 Prepare amount of 2× Substrates necessary for the number of wells to be assayed.

## NC(=O)c1cc(-c2ccccc2)sc1N [Compound 37, 2-Amino-5-phenyl-thiophene-3-carboxylic acid amide]
  IC50: > 10 µM
